## Antibody variant affinities, Ab-95 light chain, assay 2

All variants were tested on one target, the spike HR2 peptide PDVDLGDISGINAS (SARS-CoV-2).

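The parent was found by panning a naive human phage display library on the peptide. AAYL52 was designed without a model: most single CDR substitutions and a random sample of double and triple ones. The scFvs were displayed on barcoded MATa yeast, the peptide on MATalpha yeast. The frequency of each diploid, read from paired DNA barcodes, reflects how well the two displayed proteins bind. Read counts were normalised to the haploid input and turned into Kd by a linear fit to BCL2-family pairs of known affinity, for each replicate. Mating was done three times.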

Parent: Ab-95, a human scFv built as VH, a 15-residue (Gly4Ser)3 linker, VL. Only the CDRs of the light chain vary.
VH: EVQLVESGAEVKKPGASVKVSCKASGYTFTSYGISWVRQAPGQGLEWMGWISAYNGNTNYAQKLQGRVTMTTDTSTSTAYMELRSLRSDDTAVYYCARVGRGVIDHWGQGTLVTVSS
VL: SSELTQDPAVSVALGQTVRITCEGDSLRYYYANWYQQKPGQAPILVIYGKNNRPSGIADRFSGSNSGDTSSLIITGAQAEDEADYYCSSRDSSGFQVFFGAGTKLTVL

Positions count from residue 1 of the parent VL; D25E puts E in place of D.
Values are apparent Kd, the geometric mean of the replicates that gave a signal; lower means stronger binding.
"no signal" means that the variant was in the library but no mating with the target was seen in any replicate; the authors take this as a sign of poor binding, and no number exists.
Nonspecific signal, from three strains lacking the peptide, appeared in 28% of pairings of library AAYL52, centred on 8.2 µM (5% of these signals below 800 nM); values are not corrected for it.
For reference, the parent read 200 nM as the reference entry and 180 nM as a member of this library.

changes,Kd (apparent),detected
D25E/Y29W/S55E,78 nM,3/3
G49E/N52P/S93K,no signal,0/3
S89Y/R90G,650 nM,3/3
Y30W/S92P/F98C,8.1 µM,1/3
E23R/D91C/F98Q,10 µM,2/3
A32W/S88Q,no signal,0/3
G49I/D91T/V97E,no signal,0/3
R28Y/R53A/S55G,26 µM,2/3
Y30R/K50P/G94E,190 nM,3/3
P54M/S55K/G94L,13 µM,3/3
R28D/S92Y/S93W,1.6 µM,2/3
E23Q/R53A/G94Y,520 nM,3/3
S26A/A32R/S55I,870 nM,3/3
G49T/R90Y/F98A,76 µM,1/3
G24R/S26R/R90M,6.0 µM,2/3
G49M/K50W/N51V,66 µM,2/3
Y29L/N52C/S88E,71 µM,1/3
D25S/N51E/D91Q,no signal,0/3
E23M/Y31M,26 nM,3/3
G24L/D25A/A32M,3.4 µM,2/3
N51Q/S55E/S93N,780 nM,3/3
G24V/S26T/Y29F,260 µM,2/3
A32G/R53S/S93Y,52 µM,3/3
S26E/Y31Q/K50L,480 nM,3/3
R28D/Y29I/N51H,56 µM,1/3
R53L/R90G,no signal,0/3
L27Q/A32M/R90N,no signal,0/3
E23T/A32Y/Q96W,94 µM,3/3
L27R/Q96W,6.9 µM,1/3
R53Q/P54S/S55F,22 nM,3/3
K50S/S88N/S89C,680 nM,3/3
E23H/S88E,54 nM,3/3
Y30T/N51V/S88T,420 nM,3/3
G24T/S92G,4.9 µM,1/3
R28V/Y31C/V97D,9.4 µM,3/3
Y30W/K50H/S93R,780 nM,3/3
N33E/N51Y/G94K,3.2 µM,2/3
L27A/P54F/S89R,13 µM,1/3
D25T/S55R/S92W,4.4 µM,2/3
D25W/A32F,26 µM,2/3
N33Q/S55Y/S88K,29 µM,1/3
E23T/S26M/F98H,27 µM,3/3
G24F/L27D/A32E,18 µM,1/3
R28F/S55K/F95D,33 µM,1/3
G24Q/S55V/F98P,17 nM,3/3
G24V/F95C/F98V,28 µM,1/3
L27H/D91C/G94D,17 µM,2/3
R53I/S93L/Q96H,8.1 µM,2/3
G24T/N51Y/S88N,3.6 µM,2/3
D25C/K50D/F95M,850 nM,3/3
D25V/A32W/P54V,1.7 µM,3/3
S26N/Y31R/R53M,45 µM,1/3
K50Q/S88F/S89A,430 nM,3/3
S26V/Y30L,200 nM,3/3
R28E/N52D/F98R,13 µM,2/3
D25N/S55C/S92P,no signal,0/3
G24K/N52E/S93Q,2.2 µM,2/3
Y29W/N52R/S88C,47 µM,2/3
L27G/R53M/S93L,46 µM,2/3

The 8 strongest on average among those seen in every replicate, once more:

changes,Kd (apparent),detected
G24Q/S55V/F98P,17 nM,3/3
R53Q/P54S/S55F,22 nM,3/3
E23M/Y31M,26 nM,3/3
E23H/S88E,54 nM,3/3
D25E/Y29W/S55E,78 nM,3/3
Y30R/K50P/G94E,190 nM,3/3
S26V/Y30L,200 nM,3/3
Y30T/N51V/S88T,420 nM,3/3

Values reported by Engelhart et al. 2022, doi:10.1038/s41597-022-01779-4 (FLAb copy).